From patent US6291194A, “Assay for determination of androgenic or anti-androgenic activity of a serum sample or a test compound” (priority 2000, dated 2001)

Test: Serum androgen bioactivity in prepubertal boys with cryptorchidism during hCG treatment
Assay type: in vivo, human
Conditions: 9 prepubertal boys with cryptorchidism; below detection limit before treatment

## hCG: human chorionic gonadotropin, given i.m. to boys with cryptorchidism
  serum androgen bioactivity level during treatment: above the assay sensitivity
